From ChEMBL document CHEMBL1148605, “Synthesis and preliminary in vitro investigation of bivalent ligands containing homo- and heterodimeric pharmacophores at mu, delta, and kappa opioid receptors” (J Med Chem, 2006) come the findings set out here.

Sequences of proteins named here, by UniProt entry; tags and fusion partners are left off. A change or cut given only in a name is not applied to a line headed by its entry.
UniProt P41145: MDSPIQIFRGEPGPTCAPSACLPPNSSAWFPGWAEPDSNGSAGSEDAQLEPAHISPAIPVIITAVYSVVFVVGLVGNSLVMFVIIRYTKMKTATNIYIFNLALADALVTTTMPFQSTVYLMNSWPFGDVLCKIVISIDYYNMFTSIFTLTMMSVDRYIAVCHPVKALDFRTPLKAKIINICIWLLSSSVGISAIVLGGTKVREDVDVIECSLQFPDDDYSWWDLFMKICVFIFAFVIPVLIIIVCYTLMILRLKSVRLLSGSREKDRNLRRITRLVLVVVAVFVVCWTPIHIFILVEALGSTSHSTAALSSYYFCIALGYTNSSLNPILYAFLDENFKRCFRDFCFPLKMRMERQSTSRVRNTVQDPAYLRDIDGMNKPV

The target of this assay is Kappa-type opioid receptor (Homo sapiens, UniProt P41145). Put plainly: Functional activity at human kappa opioid receptor expressed CHO cells by [35S]GTPgammaS binding assay. Type of assay: cell-based. As to conditions: filed as agonist.

Structures are written as SMILES.

With `CN(C(=O)Cc1ccc(Cl)c(Cl)c1)[C@H]1CCCC[C@@H]1N1CCCC1`, the Activity result is “Agonist”.
